What was measured:
[1] = system: C. albicans (SLU-1 strain); assay: Survival of mice systemically infected with Candida albicans; assay type: in vivo, mouse; conditions: 3-dose study
Protocol: Groups of 15 male DBA/2J mice at age 6-8 weeks (Jackson Laboratory, Bar Harbor, Me.) were inoculated with 1.24×10^5 C. albicans (SLU-1 strain as described in Example 2) by intravenous injection into the tail vein. Cells were prepared for animal injection as follows. A single colony was selected and used to inoculate a 5 mL tube of Sabouraud dextrose broth. Incubation was at 30° C. with shaking to allow aeration for a period of 15-18 hours. Four mL of the overnight culture were added to 100 mL of fresh Sabouraud dextrose broth (1:25 dilution) and incubated for 4 hours. The 100 mL culture was pelleted at 1,500×g for 5 minutes. Cells were washed twice by adding 20 mL D-PBS, vortexing and re-centrifuging. Cells were collected in one tube and a sample is diluted 1:10 to be measured by OD570 (1 OD unit=3×10^7 CFU/mL). […] Colonies were counted the following day after overnight incubation at 37° C. […]
Immediately after fungal challenge, the mice were intravenously injected via the tail vein with a 0.1 mL volume of 10 mg/kg XMP.36, 5 mg/kg XMP.97, 10 mg/kg XMP.102, 1 mg/kg amphotericin B (Sigma, St. Louis, Mo.), or phosphate buffered saline (PBS) as a control. […] Mice were monitored twice daily for mortality until termination of the study at Day 28. […] Statistical significance was evaluated using the Lifetest Survival Curve analysis. […]

Candida albicans SLU-1 = assay: Radial diffusion assay (Example 3), wild type strain; assay type: cell-based; conditions: FIG. 2A
Protocol: For the radial diffusion assays, Candida albicans SLU-1 were grown as described above and SLU-2G were grown overnight in Sabouraud dextrose broth supplemented with 10 μg/mL amphotericin B and 5 μg/mL ceftriaxone at 37° C. Cultures were diluted 1:25 into fresh, unsupplemented broth and allowed to grow for 5 hours at 37° C. Cells were pelleted at 1,500×g for 5 minutes at 4° C. Supernatant was decanted and replaced with 5 mL of 10 mM phosphate buffer, pH 7.4. After centrifugation the cell pellets were resuspended with 5 mL phosphate buffer for an OD570 determination. One OD570 for SLU-1 cells was 3×10^7 CFU/mL and for SLU-2G cells was 5×10^6 CFU/mL. […]
Peptides were two-fold serially diluted with DPBS from a starting concentration of approximately 1 mg/mL. […] Plates were stained with a dilute Coomassie solution, inhibition zones were measured with calipers and net areas were calculated, then converted to pmol values by PROBIT analysis. […] The pmol for a 30 mm^2 zone of inhibition were calculated to be: for XMP.13, 689 pmol against SLU-1 and 129 pmol against SLU-2G; for XMP.37, 231 pmol against SLU-1 and 75 pmol against SLU-2G; for XMP.97, 670 pmol against SLU-1 and 161 pmol against SLU-2G; for XMP.127, 935 pmol against SLU-1 and 116 pmol against SLU-2G; for amphotericin B, 36 pmol against SLU-1 and >541 pmol for SLU-2G; and for nysttin, 98 pmol against SLU-1 and >1,215 pmol against SLU-2G.

| Compound | p compared to control (survival) ([1]; 1.24×10^5 C. albicans, FIG. 4, Lifetest Survival Curve analysis) | pmol for a 30 mm^2 zone of inhibition against SLU-1 (Candida albicans SLU-1) [pmol] | p compared to control (survival) ([1]; 0.5×10^5 Candida cells, FIG. 5) |
| --- | --- | --- | --- |
| CC[C@H](C)[C@H](NC(=O)[C@H](CC(C)C)NC(=O)[C@H](Cc1c[nH]c2ccccc12)NC(=O)[C@H](CCCCN)NC(=O)[C@@H](NC(=O)[C@H](CCCCN)NC(=O)[C@H](CO)NC(=O)[C@@H](N)CCCCN)C(C)C)C(=O)N[C@@H](CCC(N)=O)C(=O)N[C@@H](CC(C)C)C(=O)N[C@@H](Cc1ccccc1)C(=O)N[C@@H](Cc1c[nH]cn1)C(=O)N[C@@H](CCCCN)C(=O)N[C@@H](CCCCN)C(N)=O [XMP.97] | < 0.05 | 670 | – |
| CC[C@H](C)[C@H](NC(=O)[C@H](CC(C)C)NC(=O)[C@H](Cc1ccccc1)NC(=O)CNC(=O)[C@@H](NC(=O)[C@H](CCCCN)NC(=O)[C@H](CO)NC(=O)[C@@H](N)CCCCN)C(C)C)C(=O)N[C@@H](CCC(N)=O)C(=O)N[C@@H](CC(C)C)C(=O)N[C@@H](Cc1ccccc1)C(=O)N[C@@H](Cc1c[nH]cn1)C(=O)N[C@@H](CCCCN)C(=O)N[C@@H](CCCCN)C(N)=O [XMP.127] | – | 935 | < 0.05 |
